A word on the stoichiometry N: it is a count of units in the complex or per binding partner.

The target of the assay is TTBK2^1074−1087 peptide (synthetic) (human) (UniProt Q6IQ55). The experiment in a line: ITC; 25°C, PBS; CEP164 1-109 protein in the syringe, TTBK2 1074-1087 peptide in the cell; one set of binding sites model. (In general: ITC needs no label: the signal is the heat of the interaction.)
Take “CEP164^1−109 S82A, untagged (from UniProt Q9UPV0 1-109) (domain or fragment)”: the dH was -14 kcal/mol and the stoichiometry N amounted to 0.7.

For the substance “CEP164^1−109 (N-terminal domain of human CEP164), untagged (from UniProt Q9UPV0 1-109) (domain or fragment)”, the dH was -17 kcal/mol and the stoichiometry N worked out at 0.7.

“CEP164^1−109 Q11P, untagged (from UniProt Q9UPV0 1-109) (domain or fragment)” yielded a dH of -9 kcal/mol and a stoichiometry N of 1.

As for “CEP164^19−109 (CEP164-NTD Δ1–18), untagged (from UniProt Q9UPV0 19-109) (domain or fragment)”, the dH is -10 kcal/mol and the stoichiometry N was determined as 1.
